This passage reports Ki results from BindingDB's records for patent US11312688 (Sumitomo Dainippon Pharma, 2022).

Amino acid sequences for entries named in this document (tags omitted). A change or cut given only in a name is not applied to a line headed by its entry.
UniProt P28335: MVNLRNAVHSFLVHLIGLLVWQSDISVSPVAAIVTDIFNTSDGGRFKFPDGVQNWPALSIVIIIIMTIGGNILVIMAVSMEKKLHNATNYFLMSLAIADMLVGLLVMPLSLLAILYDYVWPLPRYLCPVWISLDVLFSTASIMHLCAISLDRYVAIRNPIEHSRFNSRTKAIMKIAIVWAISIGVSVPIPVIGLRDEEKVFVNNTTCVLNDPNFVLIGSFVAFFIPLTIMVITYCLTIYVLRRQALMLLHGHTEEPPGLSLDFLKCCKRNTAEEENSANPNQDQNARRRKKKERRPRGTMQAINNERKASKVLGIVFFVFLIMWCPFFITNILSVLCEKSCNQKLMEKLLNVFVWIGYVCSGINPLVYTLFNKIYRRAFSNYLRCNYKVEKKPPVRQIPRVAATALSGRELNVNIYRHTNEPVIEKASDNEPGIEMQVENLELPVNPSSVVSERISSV
UniProt P31645, whole entry: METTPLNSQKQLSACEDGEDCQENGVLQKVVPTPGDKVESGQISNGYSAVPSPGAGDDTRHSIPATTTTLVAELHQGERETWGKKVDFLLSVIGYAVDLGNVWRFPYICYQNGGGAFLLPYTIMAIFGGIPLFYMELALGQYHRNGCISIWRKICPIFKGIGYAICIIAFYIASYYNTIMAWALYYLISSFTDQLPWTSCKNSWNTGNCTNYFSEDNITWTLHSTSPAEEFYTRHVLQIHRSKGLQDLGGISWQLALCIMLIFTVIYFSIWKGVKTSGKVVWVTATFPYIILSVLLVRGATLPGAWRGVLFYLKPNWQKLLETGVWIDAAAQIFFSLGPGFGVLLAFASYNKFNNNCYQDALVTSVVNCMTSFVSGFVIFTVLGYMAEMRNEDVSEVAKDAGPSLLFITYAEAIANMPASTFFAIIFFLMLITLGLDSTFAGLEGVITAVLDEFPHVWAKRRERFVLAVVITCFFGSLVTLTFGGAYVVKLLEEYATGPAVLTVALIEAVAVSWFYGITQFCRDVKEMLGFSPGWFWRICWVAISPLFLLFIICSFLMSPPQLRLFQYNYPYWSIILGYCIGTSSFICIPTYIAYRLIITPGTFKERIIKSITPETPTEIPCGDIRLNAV

Test [1] deals with 5-hydroxytryptamine receptor 2C (Homo sapiens, UniProt P28335).
Test [2] addresses Sodium-dependent serotonin transporter (Homo sapiens, UniProt P31645).

The structures appear in SMILES notation.

With `CCC(CC)n1nc(CNC)cc1OCc1cc(Cl)ccc1F` [US11312688, Example 256], the Ki (as a rule, a measure of affinity in units of concentration, obtained from inhibition or displacement) in test [1] amounted to 12 nM; in test [2], 1.6 nM.
